## Binding of CDR-mutated scFvs to a peptide of the spike HR2 region

The measurements come from Engelhart et al. 2022 (doi:10.1038/s41597-022-01779-4) through the FLAb antibody collection.

Binding partner: SARS-CoV-2 spike HR2 peptide, sequence PDVDLGDISGINAS.

Parent scFv Ab-14: VH joined to VL by a (GGGGS)3 linker. Changes lie in the heavy chain CDRs alone.
VH: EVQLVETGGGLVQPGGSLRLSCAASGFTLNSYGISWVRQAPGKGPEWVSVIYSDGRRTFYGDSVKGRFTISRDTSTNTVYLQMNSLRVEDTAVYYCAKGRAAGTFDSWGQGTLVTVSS
VL: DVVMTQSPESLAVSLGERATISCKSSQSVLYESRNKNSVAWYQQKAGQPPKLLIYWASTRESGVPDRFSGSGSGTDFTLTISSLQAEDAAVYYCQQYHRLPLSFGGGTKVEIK

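Library AAYL49 holds single substitutions and randomly drawn double and triple substitutions in the CDRs. In AlphaSeq, yeast of one mating type display the scFv and yeast of the other type display the target. Pairs that bind mate more often; barcode pairs of the diploids are counted by sequencing. The ratio of observed to expected reads was calibrated, replicate by replicate, on BCL2-family standards whose Kd was known from biolayer interferometry. Each pool was mated in three replicate cultures.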

Sequences are complete VH domains.
Values are log10 of the apparent Kd in nM; lower means stronger binding.
Where no diploid with the target was found in that replicate, the entry reads "nd": below detection, most likely a poor binder, though not proof of it.

VH | replicates, log10 nM | control signals
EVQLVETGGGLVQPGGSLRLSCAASGFTPNSYGISWVRQAPGKGPEWVSVIYSEGRRTFYGDSVKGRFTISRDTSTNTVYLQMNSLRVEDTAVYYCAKGRYAGTFDSWGQGTLVTVSS | nd / nd / nd | 0 of 9
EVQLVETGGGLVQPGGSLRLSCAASGFTLKSYGISWVRQAPGKGPEWVSVIYSDGRRTFYGDCVKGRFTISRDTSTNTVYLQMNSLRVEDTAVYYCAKGRAAGTFDGWGQGTLVTVSS | 2.10 / 2.45 / 3.50 | 1 of 9 (3.55)
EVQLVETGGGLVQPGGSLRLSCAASGFTLNSYHITWVRQAPGKGPEWVSWIYSDGRRTFYGDSVKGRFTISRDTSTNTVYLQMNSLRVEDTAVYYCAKGRAAGTFDSWGQGTLVTVSS | nd / nd / nd | 0 of 9
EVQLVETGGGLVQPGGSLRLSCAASGFTYNSYGISWVRQAPGKGPEWVSVIYSDGRRTFYGDSVKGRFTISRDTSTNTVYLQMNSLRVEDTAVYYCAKERAADTFDSWGQGTLVTVSS | nd / nd / nd | 0 of 9
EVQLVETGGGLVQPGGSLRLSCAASGFTPNSYGISWVRQAPGKGPEWVSVIYSDGRRTFYGDCVKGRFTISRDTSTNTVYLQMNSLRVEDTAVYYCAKGDAAGTFDSWGQGTLVTVSS | nd / nd / nd | 2 of 9 (3.50)
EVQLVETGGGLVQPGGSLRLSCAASGFTLNSAGISWVRQAPGKGPEWVSVIYSDCRRTFYGDSVKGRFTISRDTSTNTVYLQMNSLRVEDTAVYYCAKGRAAFTFDSWGQGTLVTVSS | nd / nd / 3.97 | 0 of 9
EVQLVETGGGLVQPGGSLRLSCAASGFTLNSYGRSWVRQAPGKGPEWVSVIYSDGRRTFYGDSVKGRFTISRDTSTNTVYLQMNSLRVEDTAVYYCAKGRAAGTTDNWGQGTLVTVSS | nd / nd / nd | 1 of 9 (3.08)
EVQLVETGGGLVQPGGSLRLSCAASGFTLNSYGISWVRQAPGKGPEWVSVIYSDGQRTFYGRSVKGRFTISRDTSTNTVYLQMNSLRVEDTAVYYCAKGRAAGTFDSWGQGTLVTVSS | 2.27 / 2.17 / 2.09 | 1 of 9 (2.69)
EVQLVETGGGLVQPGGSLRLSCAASGFTLNSYGIDWVRQAPGKGPEWVSVIYSDGRRTYYGDSVKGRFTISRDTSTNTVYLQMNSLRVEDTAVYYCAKGRAAGTFDSWGQGTLVTVSS | nd / nd / nd | 4 of 9 (4.62)
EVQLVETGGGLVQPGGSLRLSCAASGFYLNSYGISWVRQAPGKGPEWVSVIYSDGRRTFYGDSVKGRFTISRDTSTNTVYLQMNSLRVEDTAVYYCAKGRAAGTAISWGQGTLVTVSS | nd / nd / nd | 0 of 9
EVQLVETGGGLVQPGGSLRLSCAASGFTDNSYGISWVRQAPGKGPEWVSVIYSDGRRTFYGDSFKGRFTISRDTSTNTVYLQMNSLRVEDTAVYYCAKGRAAGTRDSWGQGTLVTVSS | nd / nd / nd | 0 of 9
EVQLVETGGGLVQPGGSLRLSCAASGFTLNSYGISWVRQAPGKGPEWVSVIYSDGRRTCYGDSVKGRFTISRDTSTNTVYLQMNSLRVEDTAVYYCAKGRNAGTFDSWGQGTLVTVSS | 2.70 / 1.97 / 2.37 | 1 of 9 (3.56)
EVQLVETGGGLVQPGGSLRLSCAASGFTLNSYKISWVRQAPGKGPEWVSVIYSDGRHTFYGDSVKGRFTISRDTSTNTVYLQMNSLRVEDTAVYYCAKGRAAGHFDSWGQGTLVTVSS | nd / nd / nd | 0 of 9
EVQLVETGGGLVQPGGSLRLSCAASGFTLNSYGISWVRQAPGKGPEWVSVIYSDIRRTFYGDSVKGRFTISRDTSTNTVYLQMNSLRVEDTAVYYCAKWWAAGTFDSWGQGTLVTVSS | nd / nd / nd | 0 of 9
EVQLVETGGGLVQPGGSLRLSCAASGWTWNSYGISWVRQAPGKGPEWVSVIYSDGRRTFYGDSVKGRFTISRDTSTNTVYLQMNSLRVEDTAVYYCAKGRAAGTFDSWGQGTLVTVSS | nd / 4.18 / 4.56 | 3 of 9 (4.07)
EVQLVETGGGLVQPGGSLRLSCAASGFTLNSYGISWVRQAPGKGPEWVSFQYSDGRRTFYGDSPKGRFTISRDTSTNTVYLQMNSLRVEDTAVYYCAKGRAAGTFDSWGQGTLVTVSS | nd / nd / nd | 0 of 9
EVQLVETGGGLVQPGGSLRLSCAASGFTLNSYGISWVRQAPGKGPEWVSVIYSDGRRTFYGDSVKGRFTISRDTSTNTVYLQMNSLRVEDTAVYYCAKGRAAGTFDYWGQGTLVTVSS | nd / nd / nd | 3 of 9 (4.04)
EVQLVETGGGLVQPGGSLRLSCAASGFMLNSYGISWVRQAPGKGPEWVSVIYSDGRRTFDGDSVKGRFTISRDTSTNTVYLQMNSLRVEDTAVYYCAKGRAAGTFDSWGQGTLVTVSS | nd / 3.66 / nd | 0 of 9
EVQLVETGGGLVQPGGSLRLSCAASGFTLESYGIMWVRQAPGKGPEWVSVIYSDGRRTFYGDSVIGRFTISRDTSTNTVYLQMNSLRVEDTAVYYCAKGRAAGTFDSWGQGTLVTVSS | nd / nd / 3.27 | 0 of 9
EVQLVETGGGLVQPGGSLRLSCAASGFTLNSYGISWVRQAPGKGPEWVSVIYSDGRRTFYGDSKKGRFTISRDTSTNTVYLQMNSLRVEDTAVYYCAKGRAAGTFDSWGQGTLVTVSS | nd / nd / nd | 2 of 9 (3.78)
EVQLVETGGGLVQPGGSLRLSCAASGFTLNSYGISWVRQAPGKGPEWVSVIYSDGRRTFKFDSVKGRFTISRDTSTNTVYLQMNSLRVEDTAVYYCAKGRAAGTFQSWGQGTLVTVSS | nd / nd / nd | 0 of 9
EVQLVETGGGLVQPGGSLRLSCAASGFTLNSYGISWVRQAPGKGPEWVSVIYSDGCRTFYLDSVKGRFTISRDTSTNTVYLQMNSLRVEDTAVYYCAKGRAAGTFDSWGQGTLVTVSS | nd / nd / nd | 0 of 9

Repeated from above, the 3 best binders with a signal in all replicates:

| VH | replicates, log10 nM | control signals |
|---|---|---|
| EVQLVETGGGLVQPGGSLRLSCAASGFTLNSYGISWVRQAPGKGPEWVSVIYSDGQRTFYGRSVKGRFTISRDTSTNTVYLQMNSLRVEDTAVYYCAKGRAAGTFDSWGQGTLVTVSS | 2.27 / 2.17 / 2.09 | 1 of 9 (2.69) |
| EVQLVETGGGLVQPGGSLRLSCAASGFTLNSYGISWVRQAPGKGPEWVSVIYSDGRRTCYGDSVKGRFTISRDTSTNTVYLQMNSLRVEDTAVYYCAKGRNAGTFDSWGQGTLVTVSS | 2.70 / 1.97 / 2.37 | 1 of 9 (3.56) |
| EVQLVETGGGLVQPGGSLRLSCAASGFTLKSYGISWVRQAPGKGPEWVSVIYSDGRRTFYGDCVKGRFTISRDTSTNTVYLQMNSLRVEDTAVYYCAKGRAAGTFDGWGQGTLVTVSS | 2.10 / 2.45 / 3.50 | 1 of 9 (3.55) |

Parent in this assay: reference entry 0.65, copy in this library 4.11 (one replicate of three).
Empty control strains, which show no peptide, gave a signal in 15% of pairings with library AAYL49; the median was 4.06 and 95% of these signals were weaker than 2.83. No background was subtracted. The control count says in how many pairings with the empty strains this scFv gave a signal, with their mean in brackets.